# Earlier results, collected in paper PMC6151961 (Journal of Enzyme Inhibition and Medicinal Chemistry, 2018).
# Molecular target: CA IX (Homo sapiens, UniProt Q16790)
# Conditions: cited from earlier work
structure (smiles),measurement,value
CC(=O)OC[C@H]1O[C@H](S(=O)(=O)N2CCC(OS(N)(=O)=O)CC2)[C@@H](OC(C)=O)[C@H](OC(C)=O)[C@H]1OC(C)=O [B0014],Ki,2 nM
CC(=O)OC[C@H]1O[C@H](S(=O)(=O)NCCOS(N)(=O)=O)[C@@H](OC(C)=O)[C@H](OC(C)=O)[C@H]1OC(C)=O [B0678],Ki,215 nM
